Data published in the CheMixHub ionic liquid set.

Test: xn = mol fraction of the nth substance listed
Conditions: 100 kPa, x1 = 0.0001802

CC(=O)[O-].CCC[N+](CCC)(CCC)CCC + CCCCCCCCCCCCOS(=O)(=O)[O-].[Na+] + O
viscosity [mPa·s]
Conditions | 308.15 K | 313.15 K | 318.15 K
x2 = 1.81e-06 | 0.705 | 0.638 | 0.589
x2 = 3.61e-06 | 0.708 | 0.64 | 0.592
x2 = 5.42e-06 | 0.709 | 0.644 | 0.593
x2 = 7.22e-06 | 0.711 | 0.645 | 0.595
x2 = 9.03e-06 | 0.711 | 0.647 | 0.595
x2 = 1.084e-05 | 0.714 | 0.648 | 0.599
x2 = 1.264e-05 | 0.718 | 0.648 | 0.6
x2 = 1.445e-05 | 0.722 | 0.649 | 0.601
x2 = 1.625e-05 | 0.723 | 0.65 | 0.601
x2 = 1.806e-05 | 0.726 | 0.65 | 0.601
x2 = 1.987e-05 | 0.727 | 0.65 | 0.601
x2 = 2.167e-05 | 0.727 | 0.651 | 0.601
x2 = 2.348e-05 | 0.727 | 0.651 | 0.602
x2 = 2.528e-05 | 0.727 | 0.651 | 0.602
x2 = 2.709e-05 | 0.727 | 0.651 | 0.602
